Measured values taken from patent publication US7282373B2 (priority 2004, dated 2007).

Amino acid sequences for entries named in this document (tags omitted). A change or cut given only in a name is not applied to a line headed by its entry.
UniProt P0A7Z4: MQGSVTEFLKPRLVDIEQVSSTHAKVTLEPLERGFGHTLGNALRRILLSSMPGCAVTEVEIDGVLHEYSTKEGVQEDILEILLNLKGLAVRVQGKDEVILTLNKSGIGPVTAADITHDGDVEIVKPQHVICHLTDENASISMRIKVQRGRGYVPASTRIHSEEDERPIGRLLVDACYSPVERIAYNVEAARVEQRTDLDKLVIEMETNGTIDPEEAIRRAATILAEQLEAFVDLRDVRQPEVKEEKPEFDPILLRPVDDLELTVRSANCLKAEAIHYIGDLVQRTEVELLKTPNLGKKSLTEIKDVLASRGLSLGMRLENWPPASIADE

Assays:
[1] = Spectroscopic properties of fluorochrome conjugates; assay type: physicochemical; conditions: in methanol
α-CCPGCCN = α-CCPGCCN (Escherichia coli, UniProt P0A7Z4); test: Labeling of tagged α, purified protein (SDS-PAGE, x/y fluorescence scanning); conditions: 1 mM or 5 mM DTT; 450 μM bis-arsenical, 10 μM α derivative
untagged α = untagged α (Escherichia coli, UniProt P0A7Z4); test: Labeling of untagged α, purified protein (SDS-PAGE, x/y fluorescence scanning); conditions: 1 mM or 5 mM DTT; 450 μM bis-arsenical, 10 μM α derivative
[2] = system: tetracysteine-tagged peptide “P6”; conditions: pair “G1^0” and “P6”; 5, 10, 20 mM DTT
[3] = system: tetracysteine-tagged peptide “P3”; conditions: pair “G1^0” and “P3”; 5, 10, 20 mM DTT
[4] = system: tetracysteine-tagged peptide “P4”; conditions: pair “G1^0” and “P4”; 5, 10, 20 mM DTT
[5] = system: doubly-tetracysteine-tagged peptide “SARP-P4/G1-PP12”; conditions: excitation 488 nm, emission ≧680 nm
[6] = target: doubly-tetracysteine-tagged protein “α-SARP-P4/G1-PP9” (Escherichia coli, UniProt P0A7Z4); test: Multicolor, multisite labeling of single proteins (SARP) in crude lysate; assay type: binding
[7] = target: doubly-tetracysteine-tagged protein “α-SARP-P3/G1-PP9” (Escherichia coli, UniProt P0A7Z4); test: as above; assay type: binding
[8] = system: doubly-tetracysteine-tagged peptide “SARP-P4/G1-HL4X”; conditions: excitation 488 nm, emission ≧680 nm
[9] = system: tetracysteine-tagged peptide “G1^0”; conditions: 5, 10, 20 mM DTT
[10] = system: tetracysteine-tagged peptide “P5”; conditions: pair “G1^0” and “P5”; 5, 10, 20 mM DTT
[11] = system: doubly-tetracysteine-tagged peptide “SARP-P4/G1-PP9”; conditions: excitation 488 nm, emission ≧680 nm
[12] = no other protein detectably labeled

Substance | λmax,em [1] [nm] | λmax,exc [1] [nm] | labeling of α-CCPGCCN (α-CCPGCCN) | labeling of untagged α (untagged α) | also measured
Cy3 bis-propionamido-phenylarsine-ethanedithiol | 567 | 552 | labeling was observed | no labeling was observed | –
Cy3 bis-propionamido-phenylarsineoxide | 566 | 552 | labeling was observed | no labeling was observed | –
Cy3 bis-sulfonato bis-propionamido-phenylarsine-ethanedithiol | 572 | 558 | – | – | –
Cy5 bis-propionamido-phenylarsine-ethanedithiol | 666 | 648 | labeling was observed | no labeling was observed | –
Cy5 bis-propionamido-phenylarsineoxide | 665 | 647 | labeling was observed | no labeling was observed | –
Cy5 bis-sulfonato bis-propionamido-phenylarsine-ethanedithiol | 673 | 650 | – | – | labeling of “P6” [2]: labeled; labeling of “P3” [3]: labeled; labeling of “P4” [4]: labeled; co-labeling and FlAsH-Cy5 FRET (SARP detection) ([5]; both probes added): co-labeled; FlAsH-Cy5-FRET-dependent detection signal, control with this probe alone (other probe omitted) [5]: no signal; FlAsH-Cy5-FRET-dependent detection signal, control with this probe alone (other probe omitted) [6]: no signal; co-labeling and FlAsH-Cy5 FRET (SARP detection) ([6]; both probes added): co-labeled; specificity of co-labeling and FlAsH-Cy5-FRET-dependent detection [6, 12]: highly specific; FlAsH-Cy5-FRET-dependent detection signal, control with this probe alone (other probe omitted) [7]: no signal; co-labeling and FlAsH-Cy5 FRET (SARP detection) ([7]; both probes added): co-labeled; specificity of co-labeling and FlAsH-Cy5-FRET-dependent detection [7, 12]: highly specific; co-labeling and FlAsH-Cy5 FRET (SARP detection) ([8]; both probes added): co-labeled; FlAsH-Cy5-FRET-dependent detection signal, control with this probe alone (other probe omitted) [8]: no signal; labeling of “G1^0” as level of labeling of “P3” ([9]; pair “G1^0” and “P3”): < 10%; labeling of “G1^0” as level of labeling of “P4” ([9]; pair “G1^0” and “P4”): < 10%; labeling of “G1^0” as level of labeling of “P5” ([9]; pair “G1^0” and “P5”): < 10%; labeling of “G1^0” as level of labeling of “P6” ([9]; pair “G1^0” and “P6”): < 10%; labeling of “P5” [10]: labeled; co-labeling and FlAsH-Cy5 FRET (SARP detection) ([11]; both probes added): co-labeled; FlAsH-Cy5-FRET-dependent detection signal, control with this probe alone (other probe omitted) [11]: no signal
Cy7 bis-propionamido-phenylarsine-ethanedithiol | 774 | 743 | – | – | –
